High-throughput results deposited in PubChem BioAssay by National Center for Advancing Translational Sciences (NCATS).
Only some compounds are listed: those with a hit (about 2.1% of all), similar ones and a draw of the others.
Nrf2 ARE act: activates Nrf2 signaling | AREc32 ARE-luciferase reporter (MCF7-derived line), luminescence, 24 h | Potency, µM (titrated, usually from 46.1 µM), for the others: top-dose activation, actives largely listed as activators | actives 0.31% (n = 410,000) | AID 624171; note: potency is the fitted concentration of half-maximal effect; % of control where 0% means no effect; nearly all actives have a fitted effect of over 65% in size
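AREc32_Fluc, 1000 cells/well, OPTI-MEM + 5% FBS, o/n 37 deg C 5% CO2; 23 nL cpd by pin tool, 24 hr; Steady-Glo 30 min RT, luminescence.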
miR-21 FLuc: raises the signal of a miR-21 reporter | HeLa miR-21 FLuc reporter, luciferase, 48 h | Potency, µM (doses to about 38.3 µM), without a hit: at the top dose reporter change, positive = more light | 340,000 tested, under 10 active | AID 2288; active = well fitted rising curve with a large enough effect; inconclusive = small, poorly fitted or top-dose-only effect; inactive = no such curve, though single readings can be large or run the other way;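 note: % of control where 0% means no effect; miR-21 action dims this reporter so a rising signal means less miR-21 action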
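HeLa miR-21-FLuc reporter line, endogenous miR-21; 2000 cells/well in DMEM/10% FBS; compound titration up to ~40uM final, 48 h, 37 degree Celsius; luciferase detection reagent, 15 min lysis, CCD luminescence.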
GRP78 ERSR act: inducers of ER stress response in human glioma cells. U87-MG GRP78 promoter luciferase reporter, 16 h. Potency, µM, for the others: at the highest dose activation, actives largely listed as activators. actives 0.02% (n = 420,000); note: potency is the fitted concentration of half-maximal effect; series mostly up to about 76 µM; % of control where 0% means no effect; nearly all actives have a fitted effect of over 35% in size
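ERSR induction read as luciferase luminescence (Bright-Glo, 10 min at room temperature) in stably transfected human U87-MG glioma cells exposed to compounds for 16 h, using GRP78 as sensor.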
Nrf2 inh: blocks Nrf2 signaling. A549 ARE-Fluc reporter, luciferase luminescence, 18-24 h. Potency, µM (highest dose often 46 µM), for inactives: top-dose activity change, negative = inhibition, hits mostly inhibitors. actives 2.1% (n = 360,000). AID 504444; note: potency is the fitted concentration of half-maximal effect; % is set by controls: 0 for no effect and ±100 for the full control effect; nearly all actives have a fitted effect of over 60% in size
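Nrf2 activity is the BugLite luminescence, read 15 min after reagent at room temperature, following CellTiter-Fluor cytotoxicity readout (30 min, 37C). Compound titrations were applied for 18-24 h to 5000 A549 ARE_Fluc cells/well in 5% FBS OPTI-MEM.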
TSG101-PTAP inh: blocks PTAP/TSG101 interaction to inhibit HIV-1 budding. Fluorescence polarization, FITC-PTAP peptide / Tsg101 binding. Potency, µM (doses to about 115 µM), for inactives: at the highest dose activity change, negative = inhibition, actives largely listed as inhibitors. 340,000 tested, under 10 active. AID 493005; active = well fitted inhibition curve with a large enough effect in the main read-out, with a control signal flat, not every such curve was filed as active; inconclusive = small, poorly fitted or top-dose-only effect, or effect the other way, or a change in a side signal; inactive = no such curve, though single readings can be large or run the other way; note: potency is the fitted concentration of half-maximal effect; % of control where 0% means no effect
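Tsg101 binding domain (10 uM final) was mixed with compound and a FITC-labeled PTAP peptide (50 nM final) in HEPES pH 7.5 buffer with NaCl, Tween 20, EDTA and TCEP; fluorescence polarization was read after 20 min at r.t.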
A549 tox: counter-screen for Nrf2 inhibitors: cytotoxicity in A549 cells; A549 ARE-Fluc cells, CellTiter-Fluor viability, 18-24 h; actives 0.16% (n = 390,000); Potency, µM (top dose mostly 46 µM), for inactives: top-dose activity change, negative = cytotoxicity, actives largely listed as inhibitors; note: potency is the fitted concentration of half-maximal effect; % is set by controls: 0 for no effect and ±100 for the full control effect
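A549 ARE-Fluc cells in 5% FBS OPTI-MEM, 5000 cells/well, rested 2 h then exposed to compounds in concentration-response for 18-24 h at 37 °C. Viability by CellTiter-Fluor fluorescence (Ex 405/Em 525) after 30 min; luciferase luminescence (BugLite, 15 min, RT) read afterwards.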
The depositor's hits bear a star; ? = inconclusive; . = no result given. Unless noted, calls come from the whole dose curve; as a rule, active = well fitted curve in the direction sought with a large enough effect; inconclusive = small, poorly fitted or top-dose-only effect, or another doubt; inactive = no such curve, though single readings can be large; an effect the other way counts as inactive or inconclusive.

Screens by letter – A = Nrf2 ARE act; B = miR-21 FLuc; C = GRP78 ERSR act; D = Nrf2 inh; E = TSG101-PTAP inh; F = A549 tox
SMILES: COc1ccc(S(=O)(=O)Nc2ccc(Oc3ncccn3)c(Cl)c2)cc1
  A: 0%; B: 0%; C: 0%; D: ?; E: 1%; F: -3%
SMILES: Cc1ccc(SCc2nc(-c3ccc(C(=O)NCc4ccccc4Cl)cc3)oc2C)cc1
  A: -1%; B: 10%; C: -1%; D: 15µM*; E: .; F: 3%
SMILES: CCc1ccc(CNC(=O)c2ccc(-c3nc(CSc4ccc(C)cc4)c(C)o3)cc2)cc1
  A: -1%; B: -3%; C: 3%; D: ?; E: .; F: -4%
SMILES: COc1ccc(CNC(=O)CCc2cn(Cc3cc(C)ccc3C)c3ccccc23)cc1OC
  A: 0%; B: 10%; C: -4%; D: 23µM*; E: .; F: -5%
SMILES: COc1ccc(CCNC(=O)CCc2cn(Cc3ccc(C)cc3)c3ccccc23)cc1OC
  A: 4%; B: 13%; C: -2%; D: -14%; E: .; F: -1%
SMILES: NC(=O)[C@@H]1CCCN1C(=O)CCN1Cc2ccccc2OC(c2ccccc2F)C1 (some centres not stated)
  A: .; B: .; C: -5%; D: .; E: .; F: .
SMILES: COC(=O)[C@H]1CC=C[C@H]2CCN(Cc3ccc(Cl)c(Cl)c3)C(=O)[C@@H]12
  A: .; B: .; C: -7%; D: .; E: .; F: .
SMILES: O=C(Nc1ccc(Cl)c(C(F)(F)F)c1)[C@@H]1CC=C[C@@H]2CCN(Cc3ccc(Cl)c(Cl)c3)C(=O)[C@@H]21
  A: 0%; B: .; C: 0%; D: 12µM*; E: .; F: -11%
SMILES: Cc1cc(NC(=O)CS(=O)(=O)c2cn(Cc3cccc(F)c3)c3ccccc23)no1
  A: 1%; B: 12%; C: -5%; D: 23µM*; E: -2%; F: ?
SMILES: Cc1cc(NC(=O)CS(=O)(=O)c2cn(Cc3ccc(F)cc3)c3ccccc23)no1
  A: 5%; B: 26%; C: -3%; D: 21µM*; E: -4%; F: -9%
SMILES: CCn1cc(S(=O)(=O)CC(=O)Nc2cc(C)on2)c2ccccc21
  A: -1%; B: 5%; C: -4%; D: -22%; E: -4%; F: 0%
SMILES: CC(C)(C)CC(C)(C)N=C1Nc2ccc(Cl)cc2N[C@]12C[C@H]1CCCC(=O)N3CC[C@@H](C2)[C@@H]13
  A: .; B: .; C: 4%; D: .; E: .; F: .
SMILES: CCOc1ccc(Nc2oc(-c3cccs3)nc2C#N)cc1
  A: 2%; B: -51%; C: 4%; D: 16µM*; E: -3%; F: -20%
SMILES: CCOc1ccc(Nc2oc(-c3ccco3)nc2C#N)cc1
  A: 8%; B: -32%; C: -3%; D: -5%; E: 0%; F: -5%
SMILES: O=C(NCc1cccnc1)/C(=C\c1ccc(-c2cccc(Cl)c2)o1)S(=O)(=O)c1ccccc1
  A: ?; B: ?; C: -13%; D: 21µM*; E: -3%; F: 21µM*
SMILES: Cc1ccn2c(-c3csc(NCc4ccco4)n3)c(C)nc2c1
  A: 4%; B: 18%; C: -6%; D: 23µM*; E: -3%; F: -17%
SMILES: COc1ccc(-c2csc(NCc3ccco3)n2)cc1C
  A: 5%; B: -64%; C: 0%; D: ?; E: -1%; F: -4%
SMILES: CCC(=O)Nc1nc2ccccc2n1Cc1ccc(Cl)cc1
  A: -2%; B: 22%; C: 2%; D: 21µM*; E: -10%; F: -7%
SMILES: O=C(Nc1nc2ccccc2n1Cc1ccccc1)c1ccco1
  A: 0%; B: 19%; C: -2%; D: 16µM*; E: -3%; F: -14%
SMILES: Cc1c(C(=O)NCCc2ccncc2)cnn1-c1nccc(-c2ccccc2C(F)(F)F)n1
  A: .; B: .; C: -2%; D: .; E: .; F: .
SMILES: COCC1CCCN(Cc2ccc3c(c2)CN(C(=O)c2cn4ccc(C)cc4n2)CCO3)C1 (configuration not stated)
  A: .; B: .; C: -3%; D: .; E: .; F: .
SMILES: COc1ccc(C)cc1NC(=O)C(Sc1nnc(-c2ccncc2)n1-c1ccc(Cl)cc1)c1ccccc1 (configuration not stated)
  A: 4%; B: ?; C: -4%; D: 26µM*; E: 1%; F: -1%
SMILES: N=C1S/C(=C\c2ccc(-c3cccc(Cl)c3)o2)C(=O)N1c1nccs1
  A: 9%; B: -1%; C: -2%; D: 8.2µM*; E: 0%; F: ?
SMILES: COc1ccc(/C=C2\SC(=N)N(c3nccs3)C2=O)cc1OC
  A: ?; B: -5%; C: ?; D: ?; E: 0%; F: -24%
SMILES: Cc1nc2nncn2c(NCc2ccc(F)cc2)c1C
  A: 3%; B: 22%; C: 0%; D: 8.2µM*; E: .; F: 0%
SMILES: CCc1nc2cc(C(=O)N3CCC[C@H]3C(=O)OC)cc(NC(=O)c3ccccc3OC)c2n1C
  A: .; B: .; C: -4%; D: .; E: .; F: .
SMILES: COc1cccc(NC(=O)c2ccc(CN3CCc4ccccc4C3)cc2)c1
  A: 8%; B: 9%; C: 6%; D: 15µM*; E: -11%; F: 0%
SMILES: CC(=O)c1cccc(NC(=O)c2ccc(CN3CCc4ccccc4C3)cc2)c1
  A: 4%; B: 13%; C: -1%; D: -19%; E: 0%; F: 5%
SMILES: COc1ccc(NC(=O)c2ccc(CN3CCc4ccccc4C3)cc2)cc1OC
  A: 2%; B: 6%; C: 4%; D: 21µM*; E: -1%; F: 0%
SMILES: COc1ccc(-c2ccc(C(=O)NCC3Cc4cccc(-c5nc(C)cnc5C)c4O3)o2)cc1 (configuration not stated)
  A: .; B: .; C: 1%; D: .; E: .; F: .

A few values from the list.
Cc1cc(NC(=O)CS(=O)(=O)c2cn(Cc3cccc(F)c3)c3ccccc23)no1 @ GRP78 ERSR act = -5%
CCc1nc2cc(C(=O)N3CCC[C@H]3C(=O)OC)cc(NC(=O)c3ccccc3OC)c2n1C @ GRP78 ERSR act = -4%
COc1ccc(CNC(=O)CCc2cn(Cc3cc(C)ccc3C)c3ccccc23)cc1OC @ Nrf2 inh = 23µM*
Cc1nc2nncn2c(NCc2ccc(F)cc2)c1C @ Nrf2 inh = 8.2µM*

3 compounds from above, arranged by length of the SMILES, descending.
Screens by letter – A = Nrf2 ARE act; B = miR-21 FLuc; C = GRP78 ERSR act; D = Nrf2 inh; E = TSG101-PTAP inh; F = A549 tox
SMILES: O=C(Nc1ccc(Cl)c(C(F)(F)F)c1)[C@@H]1CC=C[C@@H]2CCN(Cc3ccc(Cl)c(Cl)c3)C(=O)[C@@H]21
  A: 0%; B: .; C: 0%; D: 12µM*; E: .; F: -11%
SMILES: CCc1nc2cc(C(=O)N3CCC[C@H]3C(=O)OC)cc(NC(=O)c3ccccc3OC)c2n1C
  A: .; B: .; C: -4%; D: .; E: .; F: .
SMILES: CCOc1ccc(Nc2oc(-c3ccco3)nc2C#N)cc1
  A: 8%; B: -32%; C: -3%; D: -5%; E: 0%; F: -5%

Additional results:
Screens by letter – A = Nrf2 ARE act; B = miR-21 FLuc; C = GRP78 ERSR act; D = Nrf2 inh; E = TSG101-PTAP inh; F = A549 tox
SMILES: COc1ccccc1CN1CCOc2ccc(C(C)(O)COc3ccccc3)cc2C1 (configuration not stated)
  A: .; B: .; C: -1%; D: .; E: .; F: .
SMILES: CS(=O)(=O)N(Cc1ccccc1)c1ccc(C(=O)Nc2cccnc2)cc1
  A: 1%; B: -8%; C: -5%; D: -1%; E: -8%; F: 2%
SMILES: CS(=O)(=O)N(Cc1ccc(Cl)cc1)c1ccc(C(=O)Nc2cccnc2)cc1
  A: 0%; B: 14%; C: -1%; D: 16µM*; E: -4%; F: -19%
SMILES: O=C(c1cnsn1)N1CCOc2ccc(C(O)C(c3ccccc3)c3ccccc3)cc2C1 (configuration not stated)
  A: .; B: .; C: -5%; D: .; E: .; F: .
SMILES: CNc1snc(C)c1C(=O)OC(C)C(=O)c1ccc(F)cc1 (configuration not stated)
  A: 0%; B: .; C: -3%; D: 21µM*; E: -3%; F: -5%
SMILES: Cc1nc2ccccc2n1CC(=O)NC(C)C1CC2CCC1C2 (configuration not stated)
  A: 0%; B: 11%; C: -3%; D: 5.2µM*; E: -1%; F: -17%
SMILES: CC(NC(=O)Cn1c(NCCO)nc2ccccc21)C1CC2CCC1C2 (configuration not stated)
  A: 0%; B: 2%; C: -1%; D: -20%; E: -7%; F: 1%
SMILES: Cc1cc(C(=O)NCC2CCC3(CCN(Cc4ccc5ccccc5c4)CC3)O2)n(C)n1 (configuration not stated)
  A: .; B: .; C: 0%; D: .; E: .; F: .
SMILES: Cc1cc(C(=O)COc2cccnc2[N+](=O)[O-])c(C)n1-c1ccccc1
  A: -2%; B: -16%; C: -10%; D: 2.9µM*; E: 0%; F: -10%
SMILES: Cc1ccc(-n2c(C)cc(C(=O)COc3cccnc3[N+](=O)[O-])c2C)cc1
  A: 0%; B: -21%; C: -7%; D: 3.3µM*; E: -1%; F: -22%
SMILES: Cc1cc(C(=O)COc2cccnc2[N+](=O)[O-])c(C)n1-c1ccccc1F
  A: -1%; B: 0%; C: -7%; D: ?; E: -5%; F: 18%
SMILES: Cc1cc(C(=O)COc2cccnc2[N+](=O)[O-])c(C)n1Cc1ccco1
  A: 4%; B: -21%; C: 0%; D: ?; E: -2%; F: -10%
SMILES: COc1cccc(C(=O)NCc2nc(-c3cccc(NC(=O)c4ccoc4C)c3)oc2C)c1OC
  A: .; B: .; C: -7%; D: .; E: .; F: .
